Assay results published in EP1175402B1, “PIPERIDINE DERIVATIVES USEFUL AS CCR5 ANTAGONISTS” (SCHERING CORPORATION, priority 1999, dated 2000).

The chains behind the UniProt entries cited, without tags or fusion partners.
UniProt P51681, whole entry: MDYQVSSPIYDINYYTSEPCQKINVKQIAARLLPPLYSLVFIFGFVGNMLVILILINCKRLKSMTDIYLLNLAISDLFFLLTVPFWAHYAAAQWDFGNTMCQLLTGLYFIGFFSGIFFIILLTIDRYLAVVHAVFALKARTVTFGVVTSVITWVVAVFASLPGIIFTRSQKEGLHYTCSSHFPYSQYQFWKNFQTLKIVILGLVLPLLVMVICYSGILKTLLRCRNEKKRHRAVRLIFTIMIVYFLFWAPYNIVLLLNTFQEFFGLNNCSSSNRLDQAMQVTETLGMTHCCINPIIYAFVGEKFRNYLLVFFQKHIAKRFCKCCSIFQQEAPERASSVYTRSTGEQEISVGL

Molecular target: T1, human CCR5 chemokine receptor (Homo sapiens, UniProt P51681)
T1 construct: expressed in transfected cells; host or cells: NIH 3T3 cells (murine), membranes
Experiment: CCR5 membrane binding assay (inhibition of 125I-RANTES binding)
Settings: membranes from NIH 3T3 cells expressing the human CCR5 chemokine receptor, one hour incubation
Protocol: CCR5 Membrane Binding Assay:
A high throughput screen utilizing a CCR5 membrane binding assay identifies inhibitors of RANTES binding. This assay utilizes membranes prepared from NIH 3T3 cells expressing the human CCR5 chemokine receptor which have the ability to bind to RANTES, a natural ligand for the receptor. Using a 96-well plate format, membrane preparations are incubated with ^125I-RANTES in the presence or absence of compound for one hour. Compounds are serially diluted over a wide range of 0.001 ug/ml to 1 ug/ml and tested in triplicates. Reaction cocktails are harvested through glass fiber filters, and washed thoroughly. Total counts for replicates are averaged and data reported as the concentration required to inhibit 50 percent of total ^125I-RANTES binding. Compounds with potent activity in the membrane binding assay are further characterized in seconday cell-based HIV-1 entry and replication assays.

Ki | Compound
0.4 nM | CCO/N=C(\c1ccc(Br)cc1)C1CCN(C2(C)CCN(C(=O)c3c(Cl)cncc3Cl)CC2)CC1 [Example 5O]
0.3 nM | CCO/N=C(\c1ccc(Br)cc1)C1CCN(C2(C)CCN(C(=O)c3c(Br)cncc3Br)CC2)CC1 [Example 5Z]
